Screens: PubChem BioAssay, National Center for Advancing Translational Sciences (NCATS)
Shown are actives, neighbours in structure and some others; about 2.3% of the full set was active somewhere.
Nrf2 block: blocks Nrf2 signaling | A549 ARE-Fluc reporter, luciferase luminescence, 18-24 h | Potency, µM (titrated, usually from 46 µM), without a hit: at the top dose activity change, negative = inhibition, most hits filed as inhibitors | 2.1% of 360,000 active; further: on the % scale 0 is the no-effect control and ±100 the full control effect; nearly all actives have a fitted effect of over 60% in size
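Reporter: ARE-Fluc in A549. Exposure: 18-24 h, 37 °C, 5% CO2, 5% FBS OPTI-MEM. Readouts: fluorescent cytotoxicity (CellTiter-Fluor), then luminescent Nrf2 signal after BugLite.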
Rango release inh: inhibition of RanGTP-driven Rango-importin beta dissociation; O95149+P62826; Biochemical FRET Rango-importin beta, RanGTP-induced dissociation; Potency, µM (highest dose often 46.1 µM), inactives show top-dose activity change, negative = inhibition; 0.071% of 340,000 active; calls by dose curve; further: % of control where 0% means no effect; nearly all actives have a fitted effect of over 45% in size
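Two FRET readings bracket the reaction: one 5 min after compound meets Rango–importin beta, another 45 min after RanGTP-RCC1 (0.6 uM Ran, 0.2 uM RCC1, 2 mM GTP) is added. Only the second defines inhibition.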
Rango complex inh: Rango-importin beta binding inhibition | Q14974 | Rango CFP/YFP FRET sensor + importin beta, 45 min | Potency, µM (doses to about 92.2 µM), inactives show at the top dose inhibition of complex formation | 0.031% of 340,000 active | AID 540263; calls by dose curve;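 further: 0% = DMSO wells and 100% = buffer wells lacking importin beta; nearly all actives have a fitted effect of over 15% in size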
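Inhibition scored from the CFP 486 nm/YFP 530 nm FRET ratio 45 min after adding 0.125 microM importin beta to 50 nM Rango biosensor preincubated 5 min with compound (room temperature, PBS with DTT, Tween-20, BSA). No-importin wells as positive control.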
A549 tox: A549 cytotoxicity, counter-screen for Nrf2 inhibitors; A549 ARE-Fluc cells, CellTiter-Fluor viability, 18-24 h; Potency, µM (top dose mostly 46 µM), without a hit: at the top dose activity change, negative = cytotoxicity, most hits filed as inhibitors; 0.16% of 390,000 active; AID 504648; further: on the % scale 0 is the no-effect control and ±100 the full control effect
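A549 ARE-Fluc cells in 5% FBS OPTI-MEM, 5000 cells/well, rested 2 h then exposed to compounds in concentration-response for 18-24 h at 37 °C. Viability by CellTiter-Fluor fluorescence (Ex 405/Em 525) after 30 min; luciferase luminescence (BugLite, 15 min, RT) read afterwards.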
Nrf2 activator: Nrf2 pathway activation. Potency, µM (doses to about 46.1 µM), without a hit: top-dose activation, most hits filed as activators. AREc32 ARE-luciferase reporter (MCF7-derived line), luminescence, 24 h. AID 624171. 0.31% of 410,000 active; further: % of control where 0% means no effect; nearly all actives have a fitted effect of over 65% in size
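Quantitative high-throughput format: AREc32 reporter cells, 1000 per well, received compound by pin transfer and were incubated 24 hr at 37 deg C, 5% CO2, before Steady-Glo luminescence detection.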
Numbers without * were called inactive. Unless noted, the call rests on the fitted dose curve; in most records, active means well fitted curve in the direction sought with a large enough effect; inconclusive means small, poorly fitted or top-dose-only effect, or another doubt; inactive means no such curve, though single readings can be large; an effect the other way counts as inactive or inconclusive. Potency means the concentration at half of the fitted maximal effect.

`CCCCNC(=O)C1(C)CCCCN1C(=O)c1ccc(OC)c(C(F)(F)F)c1` (centres undefined) gave Nrf2 activator -1%.
`CC(C(=O)O)N1C(=O)/C(=C/c2cccn2C)SC1=S` (centres undefined) gave Nrf2 block 10%, Rango release inh 2.6µM*, Rango complex inh inconclusive, A549 tox -17% and Nrf2 activator 0%.
For CC1Cc2cc(S(=O)(=O)NCc3ccc(N(C)C)cc3)ccc2N1C(=O)C1CCC1 (centres undefined) the results were Nrf2 block 23µM*, A549 tox -2% and Nrf2 activator 5%.
For CC1Cc2cc(S(=O)(=O)NCCc3ccccc3)ccc2N1C(=O)C1CC1 (centres undefined) the results were Nrf2 block inconclusive, Rango release inh -9%, Rango complex inh -1%, A549 tox -2% and Nrf2 activator 0%.
`CC1Cc2cc(S(=O)(=O)NCc3ccccc3Cl)ccc2N1C(=O)C1CCC1` (centres undefined) gave Nrf2 block 26µM*, A549 tox -14% and Nrf2 activator 0%.
COc1ccc(Cl)cc1NC(=O)CN(C)C(=O)CCC(=O)c1cc(C)sc1C was read as Nrf2 block 8.2µM*, Rango release inh 25%, Rango complex inh 6%, A549 tox 16µM* and Nrf2 activator 10%.
`COC(=O)c1cccc(NC(=S)NCCC2=CCCCC2)c1` gave Nrf2 block 23µM*, Rango release inh -13%, Rango complex inh 3%, A549 tox -8% and Nrf2 activator 4%.
`COC(=O)c1ccc(NC(=S)NCCC2=CCCCC2)cc1` gave Nrf2 block inconclusive, Rango release inh -10%, Rango complex inh 1%, A549 tox -1% and Nrf2 activator -1%.
`CCOCCOC(=O)c1[nH]c2c(c1C)C(=O)CC(c1ccc(OC)c(OC)c1)C2` (centres undefined) gave Nrf2 block 21µM*, Rango release inh -15%, Rango complex inh -1%, A549 tox -1% and Nrf2 activator 2%.
`COc1ccc(C2CC(=O)C3=C(C2)NC(C)=C(C(=O)Nc2ccccc2C)C3c2coc3ccc(C)cc3c2=O)cc1OC` (centres undefined) gave Nrf2 block -25%, Rango release inh 1%, Rango complex inh -1%, A549 tox -11% and Nrf2 activator -1%.
Screening CC1=C(C(=O)Nc2cccc(C)n2)C(c2ccc3c(c2)OCO3)C2=C(CC(c3ccco3)CC2=O)N1 (centres undefined) returned Nrf2 block 5%, Rango release inh 18µM*, Rango complex inh inconclusive, A549 tox -14% and Nrf2 activator 0%.
For O=C(CCC(=O)N1CCSc2ccccc21)NC1CCCCC1 the results were Nrf2 block 13%, Rango release inh 18%, Rango complex inh -4%, A549 tox 5% and Nrf2 activator -1%.
Screening Cc1csc(NC(=O)c2ccc(Cn3nc(C)c(Br)c3C)o2)n1 returned Nrf2 block 18µM*, Rango release inh 11%, Rango complex inh 3%, A549 tox -16% and Nrf2 activator 1%.
`Cc1cc(N)nc(=O)n1C1CC(O)C(CO)O1` (centres undefined) gave Nrf2 block 7%, Rango release inh -5%, Rango complex inh -2%, A549 tox -3% and Nrf2 activator 0%.
`O=C1CCc2cc([S+](=O)([O-])Nc3ccc(N[S+](=O)([O-])c4ccc5c(c4)CCC(=O)N5)cc3)ccc2N1` gave Nrf2 block -17% and A549 tox 12%.
`CN(Cc1ccccc1)c1ccc(C(CC(N)=O)NC(=O)c2ccccc2)cc1[N+](=O)[O-]` (centres undefined) gave Nrf2 block 10µM*, Rango release inh 13%, Rango complex inh 1%, A549 tox inconclusive and Nrf2 activator 0%.
For CN(Cc1ccccc1)c1ccc(C(CC(N)=O)NC(=O)Cc2ccc(Br)cc2)cc1[N+](=O)[O-] (centres undefined) the results were Nrf2 block -13%, Rango release inh 33%, Rango complex inh -2%, A549 tox 0% and Nrf2 activator -1%.
Screening Nc1ncccc1OCc1cccc(C(F)(F)F)c1 returned Nrf2 block 16µM*, Rango release inh 16%, Rango complex inh -5%, A549 tox inconclusive and Nrf2 activator 0%.
`O=C(CC1C[C@H](C(=O)N2CCOCC2)[C@@]2(CCC3CCCC3)c3[nH]c4ccccc4c3CCN2C1=O)NCc1cccc(C(F)(F)F)c1` (some centres undefined) gave Nrf2 block 8%, Rango release inh -6%, Rango complex inh 6%, A549 tox 0% and Nrf2 activator 0%.
O=[N+]([O-])c1ccc(-c2nc(-c3cccs3)c(-c3cccs3)[nH]2)cc1 was read as Nrf2 block inconclusive, Rango release inh -17%, Rango complex inh 9.2µM*, A549 tox inconclusive and Nrf2 activator -1%.

Three neighbouring entries already listed, quoted:
`CCCCNC(=O)C1(C)CCCCN1C(=O)c1ccc(OC)c(C(F)(F)F)c1` (centres undefined) gave Nrf2 activator -1%.
`CC(C(=O)O)N1C(=O)/C(=C/c2cccn2C)SC1=S` (centres undefined) gave Nrf2 block 10%, Rango release inh 2.6µM*, Rango complex inh inconclusive, A549 tox -17% and Nrf2 activator 0%.
For CC1Cc2cc(S(=O)(=O)NCc3ccc(N(C)C)cc3)ccc2N1C(=O)C1CCC1 (centres undefined) the results were Nrf2 block 23µM*, A549 tox -2% and Nrf2 activator 5%.

Next records.
Screening CCOC(=O)N1C/C(=C\c2ccccc2)C(=O)/C(=C/c2ccccc2)C1 returned Nrf2 block -4%, Rango release inh 0%, Rango complex inh 0%, A549 tox 0% and Nrf2 activator 11µM*.
`C[N+](C)(C)CCC(=O)N1C/C(=C/c2ccccc2)C(=O)/C(=C\c2ccccc2)C1` gave Nrf2 block 9%, Rango release inh 1%, Rango complex inh 0%, A549 tox -3% and Nrf2 activator inconclusive.
`CCOc1ccc(S(=O)(=O)NCc2ccco2)c2ccccc12` gave Nrf2 block 5%, Rango release inh 24%, Rango complex inh 2%, A549 tox 0% and Nrf2 activator 13µM*.
O=C(COC(=O)/C=C/c1cccc(C(F)(F)F)c1)NC(=O)NCc1ccco1 was read as Nrf2 block 6%, Rango release inh -2%, Rango complex inh -4%, A549 tox 5% and Nrf2 activator inconclusive.
`CC/C(C)=N/Nc1cccc([N+](=O)[O-])c1` gave Nrf2 block -9%, Rango release inh -2%, Rango complex inh -1%, A549 tox 0% and Nrf2 activator 0%.
For Cc1cccc(NC(=O)c2ccc(S(=O)(=O)N3CCCCC3)cc2)n1 the results were Nrf2 block inconclusive, Rango release inh 0%, Rango complex inh 0%, A549 tox 0% and Nrf2 activator 3%.
`CC1CCCCN1S(=O)(=O)c1ccc(C(=O)Nc2nnc(C3CC3)o2)cc1` (centres undefined) gave Nrf2 block 13µM*, Rango release inh 11%, Rango complex inh -2%, A549 tox -16% and Nrf2 activator -1%.
